From PubChem
esBAF inh: Bmi1 luciferase reporter increase in mESCs, primary screen, esBAF inhibitor project, mouse ES cells, Bmi1 luciferase knock-in, single point. 350,000 compounds, 2% hits. reporter increase, % at 12.5 µM. 24 h; 100% = twice the neutral-well signal; in the data active = activation above about 40%; inconclusive = no clear call, values can overlap the other calls;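 also: a rise in the Bmi1 reporter signal indicates esBAF inhibition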
MITF act: activators of MITF-driven TRPM1 promoter reporter, primary screen, cell-based, SK-MEL-5, luciferase, single point | SK-MEL-5 TRPM1-promoter luciferase, 24 h; % of positive control, neutral wells = 0 | activation, % at 12.5 µM | 300,000 compounds, 0.75% hits;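 active = mean activation of at least 80% with every replicate also reaching 80%; inconclusive = mean reaches 80% but some replicate falls short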
Wnt bcat act: Wnt/beta-catenin pathway activators, primary screen, cell-based, plate reader, single point; Wnt/beta-catenin reporter cell assay, activator; activation, % at 9.35 µM; 300,000 compounds, 1.2% hits; in the data active = activation above about 30%, passing the limit was not always enough; inconclusive = no clear call, values can overlap the other calls
PglD DTNB: C. jejuni PglD acetyltransferase inhibitors, primary screen, biochemical, DTNB colorimetric, single point | UDP-N-acetylbacillosamine N-acetyltransferase PglD (Campylobacter jejuni) | purified PglD enzyme, DTNB colorimetric CoA detection | inhibition, % at 12.5 µM | 360,000 compounds, 0.098% hits | AID 602405, 2012; in the data active = inhibition above about 16%, passing the limit was not always enough; inconclusive = no clear call, values can overlap the other calls
miR-122 sensor: miR-122 Renilla sensor signal increase in Huh7, primary screen, miR-122 inhibitor project, cell-based, single point, plate reader; Huh7 miR-122 Renilla luciferase sensor, 48 h; neutral wells = 0, positive control = 100; activation (reporter increase), % at 12.5 µM; 340,000 compounds, 0.3% hits; AID 602342, 2012;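 active = mean replicate activation score at least 90 and every replicate individually at or above 90; inconclusive = only one of the two criteria met; inactive = neither criterion met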;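 also: higher luciferase means less miR-122 activity so hits act as miR-122 inhibitors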
Yeast UUG start: yeast start codon fidelity modulation; AID 602363; activity score, % at 18.7 µM; S. cerevisiae UUG-firefly luciferase reporter, luminescence/redox ratio; 0.13% of 350,000 active;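 active means replicate mean at a twofold rise or more, about +100% in these data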;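 further: firefly luciferase made from a UUG start codon reports start codon fidelity; reporter light over untreated wells divided by growth signal over untreated wells; some hits fall short of that in this replicate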
Ring1 derepress: Ring1 mRNA increase in mouse ESCs, confirmation, esBAF inhibitor project, cell-based, mouse ESC, RT-qPCR, cherry-pick | shares compounds with esBAF inh | 550 tested, under 10 active | mouse ESC E14, Ring1 mRNA RT-qPCR fold change | fold change at 33 µM;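 active = Ring1 gene expression raised more than 2-fold over untreated cells in both replicates at either tested dose; inconclusive = only one replicate above 2-fold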;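 also: Ring1 transcript normalised to actin housekeeping signal by TaqMan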
esBAF Fgf4 qPCR: Fgf4 mRNA decrease in mouse ESCs, confirmation, esBAF inhibitor project, cell-based, mouse ESC, RT-qPCR, cherry-pick. shares compounds with esBAF inh. mouse ESC E14, Fgf4 mRNA qPCR fold change; active compounds read low. Fgf4 expression fold change at 33 µM. 550 compounds, 4% hits. AID 743177, 2013;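 active = Fgf4 expression under 0.8 fold of control in both repeat measurements at one or both tested doses; inconclusive = under 0.8 fold in just a single repeat measurement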;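 also: Fgf4 transcript normalised to actin in duplex TaqMan qPCR; cells exposed to compound for 24 h before lysis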
Bmi1 derepress: esBAF inhibition via Bmi1 de-repression, confirmation, cell-based, RT-qPCR, mouse ESC, single point, cherry-pick; shares compounds with esBAF inh; mouse ESE14 ES cells, Bmi1 mRNA qPCR fold; active compounds read high; fold change at 33 µM; 550 tested, under 10 active; AID 743180, 2013;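 active = Bmi1 expression fold change above 6 at either tested concentration, seen in replicate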;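 also: higher fold means more Bmi1 de-repression and stronger esBAF inhibition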
A549 cytotox: A549 cell cytotoxicity, cytotoxicity control, plate reader, single point, cherry-pick; shares compounds with esBAF inh; cell viability change % (negative = cytotoxic), % at 25 µM, hits read low; 550 tested, under 10 active; AID 743188, 2013; call rule not given here
HepG2 cytotox SP: HepG2 cell cytotoxicity, cytotoxicity control, plate reader, single point, cherry-pick | shares compounds with esBAF inh | AID 743189, 2013 | 550 compounds, 4% hits | activity change, negative = inhibition, % at 25 µM | active compounds read low; in the data active = activity change below about -50%
HEK293 cytotox SP: HEK293 cell cytotoxicity, cytotoxicity control, plate reader, single point, cherry-pick; activity change, negative = inhibition, % at 25 µM, hits read low; AID 743190, 2013; shares compounds with esBAF inh; 550 compounds, 3% hits; in the data active = activity change below about -38%, passing the limit was not always enough
A number is an active result; n = inactive; u = inconclusive; x = no result given. A selection: hits, their analogues and other compounds. The true share with any hit is near 2.8%.

SMILES	esBAF inh	MITF act	Wnt bcat act	PglD DTNB	miR-122 sensor	Yeast UUG start	Ring1 derepress	esBAF Fgf4 qPCR	Bmi1 derepress	A549 cytotox	HepG2 cytotox SP	HEK293 cytotox SP
C[C@@H]1CN([C@@H](C)CO)C(=O)c2cccc(NC(=O)C3CCOCC3)c2O[C@H]1CN(C)C(=O)Nc1ccc(C(F)(F)F)cc1	n	x	x	n	n	n	x	x	x	x	x	x
Oc1cccc(C=NNc2ccccn2)c1	76	n	n	n	x	n	n	n	n	n	n	n
Brc1ccccc1/C=N/Nc1ccccn1	x	n	n	n	x	n	x	x	x	x	x	x
Clc1ccccc1C=NNc1ccccn1	98	n	39	n	x	n	n	n	n	n	n	n
O=C(O)c1ccc(O)c2ncccc12	71	x	n	n	n	n	n	n	n	n	n	n
Clc1ccc(-c2csc(N3CCSCC3)n2)cc1	76	n	n	n	n	n	n	n	n	n	n	n
C[C@@H]1CN([C@@H](C)CO)C(=O)c2cc(C#CC3CC3)cnc2O[C@@H]1CN(C)C(=O)Nc1ccc(F)cc1	n	x	x	n	n	n	x	x	x	x	x	x
Cc1ccnc(NC(=O)c2ccc(OCc3c(C)noc3C)cc2)c1	70	n	u	n	n	n	n	u	n	n	n	n
O=c1oc2ccccc2c(O)c1CN1CCCCC1	n	x	x	n	n	n	x	x	x	x	x	x
O=C(Cc1c(O)c2ccccc2oc1=O)c1ccc(F)cc1	69	x	n	n	n	n	n	n	n	n	n	n
COc1ccc2c(c1)CC/C(=C/c1ccccn1)C2=O	68	n	n	n	n	n	n	0.37	n	n	n	n
COc1ccc(CCn2nnc3ccccc3c2=O)cc1OC	61	x	n	n	n	n	n	n	n	n	n	n
O=C1CS/C(=N/N=C/c2c[nH]c3ccccc23)N1	x	x	n	n	n	n	x	x	x	x	x	x
C(=NN=Cc1c[nH]c2ccccc12)c1c[nH]c2ccccc12	74	x	46	n	n	n	n	n	n	n	n	n
Nc1c(Cl)cc(N=Nc2ccccc2)cc1Cl	58	n	n	n	n	n	n	n	n	n	-91	n
CC=Cc1ccc2n(c1=O)C[C@@H]1[C@@H](CO)[C@H](C(=O)NCc3ccccn3)[C@H]2N1CCC (mixture of isomers)	n	x	x	n	n	x	x	x	x	x	x	x
Cc1ccc(C)c(NC(=O)c2cc(-c3cc(C)c(C)cc3O)n[nH]2)c1	57	100	n	n	n	n	n	n	n	n	n	n
Fc1ccc(CSc2ccc(-c3cccs3)nn2)cc1	69	n	n	n	n	n	n	u	n	n	n	n
C[C@@H]1CN([C@@H](C)CO)C(=O)Cc2cc(NS(=O)(=O)c3cccs3)ccc2O[C@@H]1CN(C)S(C)(=O)=O	n	x	x	n	n	n	x	x	x	x	x	x
